Our source for the ka, kd and Kd values is US20060099220A1, “Antibodies against and methods for producing vaccines for respiratory syncytial virus” (MEDIMMUNE, INC., priority 2004, published 2006).

This test deals with Numax™ (Homo sapiens, UniProt P01834+P01857). Briefly: Biacore kinetic analysis of F peptides on captured Numax™. Type of test: binding. The conditions noted are these: F peptide 100 nM over captured Numax™, Biacore 3000. The method, then:
All studies were performed using Sensor Chip CM5 (Biacore AB, Uppsala, Sweden) which contains a carboxymethyl (CM) dextran matrix and a Biacore® 3000 surface plasmon resonance (SPR) biosensor (Biacore AB, Uppsala, Sweden).
Numax™ was captured via a high-affinity interaction between the Fc portion of Numax™ and a goat anti-human IgG(Fc) (KPL, Inc., Gaithersburg, Md.). Goat anti-human IgG(Fc) was covalently attached to the CM dextran matrix using amine coupling chemistry. Two anti-human IgG(Fc)-specific surfaces were created. Numax™ was diluted to 10.9 μg/mL with HBS-EP and flowed for 1 min. across one of the anti-human IgG (Fc) surfaces at a flow rate of 5 μL/min. The other anti-human IgG(Fc) surface was used as a reference surface. F peptide was prepared by dilution in HBS-EP (0.01 M Hepes pH 7.4, 0.15 M NaCl, 3 mM EDTA, 0.005% surfactant P20) to a final concentration of 100 nM. F peptide was injected for 1 min. in a serial-flow manner across the reference surface and the Numax™-specific surface. Dissociation of bound F peptide was monitored for 2 min in the presence of HBS-EP. After this dissociation period, Numax™ and F peptide were removed with a 30-sec injection of 10 mM glycine pH 1.7 (Biacore AB, Uppsala, Sweden). Because of the removal of Numax™, it was necessary to create a new Numax™-specific surface prior to the injection of each F peptide.

As to `CC[C@H](C)[C@H](NC(=O)[C@H](CC(C)C)NC(=O)[C@H](CO)NC(=O)[C@H](CC(C)C)NC(=O)[C@H](CC(C)C)NC(=O)[C@H](CCC(=O)O)NC(=O)[C@H](CO)NC(=O)[C@@H](N)CC(N)=O)C(=O)N[C@@H](CC(N)=O)C(=O)N[C@@H](CC(=O)O)C(=O)N[C@@H](CCSC)C(=O)N1CCC[C@H]1C(=O)N[C@H](C(=O)N[C@H](C(=O)N[C@@H](CC(N)=O)C(=O)N[C@@H](CC(=O)O)C(=O)N[C@@H](CCC(N)=O)C(=O)N[C@@H](CCCCN)C(=O)N[C@@H](CCCCN)C(=O)N[C@@H](CC(C)C)C(=O)N[C@@H](CCSC)C(=O)N[C@@H](CO)C(=O)N[C@@H](CC(N)=O)C(=O)N[C@@H](CC(N)=O)C(=O)N[C@@H](CS)C(N)=O)[C@@H](C)O)[C@@H](C)CC` [SEQ ID NO: 27], the ka amounted to 2.70E+05 and the kd was 5.50E−03. Further, where the note is “KD”, binding was characterised by a dissociation constant (Kd) of 20.4 nM.
